From patent publication US10709712B2 (dated 2020)

Protein sequences, listed by entry. Tags and fused reporters are not part of them.
UniProt P15056, whole entry V600E: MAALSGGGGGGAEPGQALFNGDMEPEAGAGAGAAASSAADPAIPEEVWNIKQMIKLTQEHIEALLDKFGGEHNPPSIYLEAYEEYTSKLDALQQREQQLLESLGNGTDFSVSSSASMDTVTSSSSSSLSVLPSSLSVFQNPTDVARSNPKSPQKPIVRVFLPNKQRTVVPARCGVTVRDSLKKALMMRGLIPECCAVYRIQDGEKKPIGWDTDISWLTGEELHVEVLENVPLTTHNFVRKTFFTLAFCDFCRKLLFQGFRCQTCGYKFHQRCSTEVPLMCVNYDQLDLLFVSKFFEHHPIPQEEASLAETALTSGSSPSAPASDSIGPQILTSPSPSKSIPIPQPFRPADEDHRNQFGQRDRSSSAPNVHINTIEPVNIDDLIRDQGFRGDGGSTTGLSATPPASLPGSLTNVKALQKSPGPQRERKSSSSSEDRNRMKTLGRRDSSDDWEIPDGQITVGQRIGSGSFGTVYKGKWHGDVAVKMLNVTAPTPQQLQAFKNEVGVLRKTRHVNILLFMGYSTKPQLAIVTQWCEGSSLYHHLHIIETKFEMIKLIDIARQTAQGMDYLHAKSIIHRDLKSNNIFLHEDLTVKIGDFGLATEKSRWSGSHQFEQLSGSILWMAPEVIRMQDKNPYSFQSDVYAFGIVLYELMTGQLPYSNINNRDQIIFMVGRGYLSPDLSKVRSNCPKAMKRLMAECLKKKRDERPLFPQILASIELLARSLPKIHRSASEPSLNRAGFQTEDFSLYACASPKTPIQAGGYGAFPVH

Biological target: b-Raf(V600E) (Homo sapiens (Human), UniProt P15056, V600E)
Details: read-out: b-Raf IC-50; Table 2; Alpha Screen phospho-MEK, reaction 3 hours

“N-(4-methyl-3-(7-morpholino-2-oxo-2,3-dihydrobenzo[d]oxazol-5-yl) phenyl)-3-(trifluoromethyl) benzamide [Example 827]” was tested, and the IC50 was 1.4 nM.
